Measured values from patent US9422240B2, “Partially saturated nitrogen-containing heterocyclic compound” (TAISHO PHARMACEUTICAL CO., LTD, priority 2012, dated 2016).

Amino acid sequences for entries named in this document (tags omitted).
UniProt Q9GZT9, whole entry: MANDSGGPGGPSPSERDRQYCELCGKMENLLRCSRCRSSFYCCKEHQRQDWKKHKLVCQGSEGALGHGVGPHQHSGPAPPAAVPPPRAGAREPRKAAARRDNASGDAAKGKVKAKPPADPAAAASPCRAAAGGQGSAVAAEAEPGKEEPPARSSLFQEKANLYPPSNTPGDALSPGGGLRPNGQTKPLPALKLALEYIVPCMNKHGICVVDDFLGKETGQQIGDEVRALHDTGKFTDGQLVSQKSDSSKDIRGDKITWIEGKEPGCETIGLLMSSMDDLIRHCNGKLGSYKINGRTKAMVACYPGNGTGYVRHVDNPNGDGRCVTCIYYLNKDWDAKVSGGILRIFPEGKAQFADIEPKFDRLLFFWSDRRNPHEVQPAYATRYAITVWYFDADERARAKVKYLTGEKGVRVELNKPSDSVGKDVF

Assays:
human PHD2 [1] = target: T1, human PHD2 (Homo sapiens (Human), UniProt Q9GZT9); experiment: Test 1: human PHD2 inhibitory activity, [14C]-2-oxoglutarate to [14C]-succinic acid radiometric assay with HIF-1α peptide; assay type: biochemical; settings: test compound's concentration 1 μM; Test 1, [14C]-2-oxoglutarate radiometric assay
human PHD2 [2] = target: T1, human PHD2; experiment: Test 2: human PHD2 inhibitory activity, fluorescence polarization assay of HIF-1α peptide proline hydroxylation; assay type: biochemical

For `O=C(O)CNC(=O)C1=C(O)CCN(Cc2ccc(Oc3ccc(F)cc3)cc2)C1=O`, the “Percent inhibition (% at 1 μM)” value (human PHD2 [1]) was 104%, the IC50 (human PHD2 [2]; human PHD2, fluorescence polarization assay, 20-min incubation at 30° C.) was 59 nM and the “Percent inhibition (% at 1 μM)” value (human PHD2 [2]; test compound's concentration 1 μM, Test 2, fluorescence polarization assay) was 98%.
